Binding of CDR-mutated scFvs to a peptide of the spike HR2 region

From the AlphaSeq antibody data of Li et al. 2023 (doi:10.1038/s41467-023-39022-2), copy in the FLAb collection.

All variants were tested on one target, the spike HR2 peptide PDVDLGDISGINAS (SARS-CoV-2).

Ab-14 is the parent antibody, in scFv form: VH, then a (GGGGS)3 linker, then VL. The heavy chain is unchanged in all variants.
VH: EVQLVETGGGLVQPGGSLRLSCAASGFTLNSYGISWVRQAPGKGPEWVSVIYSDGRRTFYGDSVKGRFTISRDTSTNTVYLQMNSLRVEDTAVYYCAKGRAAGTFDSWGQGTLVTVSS
VL: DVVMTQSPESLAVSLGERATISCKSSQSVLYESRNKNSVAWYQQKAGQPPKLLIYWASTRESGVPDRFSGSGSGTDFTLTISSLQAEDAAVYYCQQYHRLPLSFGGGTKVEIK

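The starting antibody came from a phage panning campaign against this peptide. This is the validation round: designs drawn from the data on random variants, tested in the same kind of assay. Several design methods are mixed in this list. The assay is AlphaSeq: two haploid yeast populations carry antibody and antigen on their surface. Pairs that bind mate more often; barcode pairs of the diploids are counted by sequencing. Scores were corrected for input abundance and mapped to Kd with protein pairs of known affinity run in the same pool. There are six technical replicates.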

Variants are written as CDR1, CDR2 and CDR3 of the light chain (limits as in the source). Parent: KSSQSVLYESRNKNSVA, WASTRES, QQYHRLPLS. This list holds designs with at most six substitutions. Scale: log10 of Kd in nM, estimated from mating counts; low values are strong binders. A mean of the replicates is given; it leaves out those without a signal. "no signal" marks a missing value. The strain was present, yet no cells mated with the target were sequenced in any replicate, which points to weak or no binding. The list is sorted by this average, lowest first, undetected variants last. In the paper, a design with two or fewer of six values counts as a poor binder. A sequence measured in both rounds can read differently, since the two assays cover different ranges. Three control strains display no target. For all light chain designs, 4% of the pairings with them gave a signal, with a median of 2.64 and one signal in twenty below 1.59, so weak values seen in few replicates may be background.

| CDR-L1 | CDR-L2 | CDR-L3 | mean log10 Kd (nM) | replicates with signal |
|---|---|---|---|---|
| KLQQSFLYESRNKNSVA | DASQRES | QQYHRLPLS | -0.54 | 6/6 |
| KLSQLELYESRNKNSVA | NASTRES | QQYHRLPLS | -0.52 | 6/6 |
| KLSQSVLYESRNKNSVA | EASTRMM | QQYHRLPLS | -0.31 | 6/6 |
| KVSQSGLYESRNKNSVA | QASTRES | QQYHRLPLS | -0.30 | 6/6 |
| KVSQSNLYESRNKNSVA | QASTRES | QQYHRLPLS | -0.26 | 6/6 |
| ASSQGWLYEQRNKNSVA | GASTRED | QQYHRLPLS | -0.23 | 6/6 |
| KSSISDLIESRNKNSVA | EASTRES | QQYHRLPLS | -0.22 | 6/6 |
| KLSQSFLYESRNKNNVA | NASQRES | QQYHRLPLS | -0.18 | 6/6 |
| KSSISYLYESMNKNSVA | EASQRES | QQYHRLPLS | -0.15 | 6/6 |
| KLSYSVLYESRNKNSVA | NASTRES | QQYHRLPLS | -0.14 | 6/6 |
| KYSQEVMEESRNKNSVA | NASTREE | QQYHRLPLS | -0.13 | 6/6 |
| KVSQSELYGSRNKWSVA | NASTRES | QQYHRLPLQ | -0.09 | 6/6 |
| KLSQSVLYESRAKNSVA | NASTRES | QQYHRLPLS | -0.04 | 6/6 |
| KLSWSMLYESRNKNSVA | NASTRMS | QQYHRLPLS | -0.04 | 6/6 |
| KIEQGVLYESRNKGSVA | GASVRES | QQYHRLPLS | -0.02 | 6/6 |
| KLSQSFDYESRNKNSVA | DASTRES | QQYHRLPLS | -0.01 | 6/6 |
| KMSQSVLPESRNKNSVA | EASTRES | QQYHRLPLS | 0.03 | 6/6 |
| KSSMSWLYESRNKNSVA | GASFRES | QQYHRLPLS | 0.07 | 6/6 |
| HSSPSVHYESRNKNSVA | NASTRES | QQYHRLPLS | 0.08 | 6/6 |
| KLRQSTLYESRNQNSVA | YASTRES | QQYHRLPLS | 0.13 | 6/6 |
| KSSQGYLYESRNKNSVA | GASTRES | QQYHRLPLS | 0.14 | 6/6 |
| KVSQSFLYESRNKNSVA | GASTRES | QNYHRLPLS | 0.24 | 6/6 |
| KASQSFLYESRNKNSVA | GASTRES | QNYHRLPLS | 0.25 | 6/6 |
| KLDQSQLYESRNKNSVA | NASTRES | QQYHRLPLS | 0.32 | 6/6 |
| KLSQSVGYESRNKNSVA | NASTREE | QQYHRLPLS | 0.35 | 6/6 |
| KSIQSVLYESRNKNSVA | SASTRES | QQYHRLPLS | 0.37 | 6/6 |
| KSSQSVLYESRNKNSVA | KASTRES | QQYERLPLS | 0.40 | 6/6 |
| KLRQSMLYESRNKNSVA | YASTRES | QQYHRLPLS | 0.40 | 6/6 |
| KSSKSVLYESRNKNSVA | EASTRES | QQYHRLPLS | 0.42 | 6/6 |
| KLVQSVLYESRNKNSVA | HASTRED | QQYHRLPLS | 0.43 | 6/6 |
| KVLQSVLYEGRNKNSVA | NASTRED | QQYHRLPLS | 0.49 | 6/6 |
| KFSDSVLLESRHKNSVA | NASTRES | QQYHRLPLS | 0.49 | 6/6 |
| KIWQSLLYESRNKNSVA | KATTRES | QQYHRLPLS | 0.66 | 6/6 |
| KSSQSVLQEDRNSNSVA | NASTREL | QQYHRLPLS | 0.66 | 6/6 |
| KMSQSDLCESRNKNSVA | DASTRES | QQYHRLPLS | 0.69 | 6/6 |
| KSSQSDLYESRNFWSVA | GASTRES | QQYHRLPLS | 0.69 | 6/6 |
| KFSDSVLEESRNKNSVA | WASTRES | QQYMRLPLS | 0.72 | 3/6 |
| KISQSVLYESRNWNAVA | EASQRPS | QQYHRLPLS | 0.73 | 6/6 |
| KLDQSVLSESANKNSVA | NASTRES | QQYHRLPLS | 0.74 | 6/6 |
| KSSQSVLFESRNKNSVA | SASTRES | QQYHRLPLS | 0.76 | 6/6 |
| KSSQSVMNESRNKNSVA | DASTRES | QTYHRLPLS | 0.77 | 6/6 |
| KLSQSVLMEHRNKNSVA | WASTRES | QQYHRLPLS | 1.18 | 6/6 |
| KLSQSVYYESRNKNSIA | WASTRES | QQYHRLPLS | 1.24 | 6/6 |
| KSSGSVLYESRNKNSVA | QAYTRFS | QQYHRLPLS | 1.27 | 3/6 |
| KSGQGVLYESRNKNSVA | GASYRES | QQYHRLPLF | 1.28 | 6/6 |
| KSSQSVLTSDRNKNSVA | WASTRES | QQYFRLPLS | 1.32 | 6/6 |
| KSSQSVLYESQNKNSVA | WAMTRES | QQYHRLPLS | 1.55 | 1/6 |
| KSSQSVLFESRNKNSVA | WASTRET | QQYHRLPLS | 1.61 | 6/6 |
| KSSQSVLYESPFKNSVA | WASTRES | QQYHRLPLS | 1.69 | 6/6 |
| KSSPSVLHESRRKNSVA | WASTRES | QQYHRLPLS | 1.74 | 2/6 |
| KSSQSNLEESRNHNSVA | WASTRES | QQYHRLPLS | 1.85 | 3/6 |
| KNSQSVLYEDRNKNSVA | WASTRES | QQYHRLPLS | 2.09 | 2/6 |
| KRSQSVLYESRNKNSVA | WASTLES | QQYHRLPLS | 2.16 | 2/6 |
| KSSRSVLYESRNKNSVA | WASIRES | QQYHRLPLS | 2.49 | 2/6 |
| KSSQSVLYESRNKNSVA | WASTRIS | VQYHRLPLS | no signal | 0/6 |
| KSSQSVLYESRNKNSVA | YASTRES | QVYHRLQLS | no signal | 0/6 |
| KSSDSNLYESRNKESVA | WASTRES | QQYHRLPLS | no signal | 0/6 |
| KMSQSVLYESFNDNSVA | WASTRES | QQYQCLPLS | no signal | 0/6 |
| KSSQSVLMESYNKNSVA | WASTGES | QQAHRLPLS | no signal | 0/6 |
| KSSQSVLYESRNKNSVA | WASTRES | QQYHRLPLA | no signal | 0/6 |
| KSSQSALYESRNKNSVA | WAMTRES | QQEHRLPLS | no signal | 0/6 |

The 7 strongest on average among those seen in every replicate, once more:

| CDR-L1 | CDR-L2 | CDR-L3 | mean log10 Kd (nM) | replicates with signal |
|---|---|---|---|---|
| KLQQSFLYESRNKNSVA | DASQRES | QQYHRLPLS | -0.54 | 6/6 |
| KLSQLELYESRNKNSVA | NASTRES | QQYHRLPLS | -0.52 | 6/6 |
| KLSQSVLYESRNKNSVA | EASTRMM | QQYHRLPLS | -0.31 | 6/6 |
| KVSQSGLYESRNKNSVA | QASTRES | QQYHRLPLS | -0.30 | 6/6 |
| KVSQSNLYESRNKNSVA | QASTRES | QQYHRLPLS | -0.26 | 6/6 |
| ASSQGWLYEQRNKNSVA | GASTRED | QQYHRLPLS | -0.23 | 6/6 |
| KSSISDLIESRNKNSVA | EASTRES | QQYHRLPLS | -0.22 | 6/6 |